The conditions of data set [1]: Genotoxicity profile; data extracted from Kirkland et al. 2008; cited from earlier work.
The conditions of data set [2]: Genotoxicity profile; data extracted from Kirkland et al. 2008; cited from earlier work. The source holds these as a separate data set.
Data set [3] deals with Salmonella. The settings on record: Genotoxicity profile; data extracted from Kirkland et al. 2008; cited from earlier work.
Data set [4] relates to Bscl2-GFP and Srxn1-GFP mES reporter cells. Nature of the data set: ToxTracker GFP reporter assay (Bscl2-GFP/Srxn1-GFP). The note with it: from which GFP reporter is induced. (In general: Reporter assays use an easily measured gene product as a stand-in for the process of interest.)

On to `CC(C)(C)OO` [Tert-butyl hydroperoxide], for which the In vitro genotoxicity entry in data set [1] is “Neg”. Also, the In vivo genotoxicity entry in data set [2] is listed as “Neg”. In data set [3], the Ames test entry is recorded as “Pos”. Moreover, the “Bscl2-GFP/Srxn1-GFP Prim. toxic properties” value in data set [4] is listed as “Pro-oxidant”.

(Values after patent US9695481B2, “Polynucleotides comprising a reporter sequence operatively linked to a regulatory element” (UNIVERSITEIT LEIDEN, priority 2010, dated 2017).)
